Assays:
[1] = BZ metabolites in plasma of salmon euthanized with BZ overdose; format: in vivo, Atlantic salmon; details: salmon euthanized with 200 mg/L BZ
ASG-10 = assay: BZ metabolism in ASG-10 (LC-HRMS/MS); format: in vitro ADME, Atlantic salmon (Salmo salar); details: 303 µM BZ, 24 h, 45,000 or 90,000 cells/well, LC-HRMS peak areas

Substance: Benzocaine hydroxylamine glucuronide [BZ(O)GlcA]
- BZ metabolites in salmon plasma [1]: presence
- BZ metabolites produced in ASG-10 cells (ASG-10): presence
- BZ metabolites produced in ASG-10 cells (ASG-10; listed as BZ(O)GLcA): dependency on cell density

— article PMC10303838, “Atlantic Salmon Gill Epithelial Cell Line (ASG-10) as a Suitable Model for Xenobiotic Biotransformation” (Metabolites, 2023)
